The values that follow come from article PMC4961704, “Synthesis and Biological Evaluation of Thiophene-Based Cannabinoid Receptor Type 2 Radiotracers for PET Imaging” (Frontiers in Neuroscience, 2016).

Sequences of proteins named here, by UniProt entry; tags and fusion partners are left off.
UniProt P21554, whole entry: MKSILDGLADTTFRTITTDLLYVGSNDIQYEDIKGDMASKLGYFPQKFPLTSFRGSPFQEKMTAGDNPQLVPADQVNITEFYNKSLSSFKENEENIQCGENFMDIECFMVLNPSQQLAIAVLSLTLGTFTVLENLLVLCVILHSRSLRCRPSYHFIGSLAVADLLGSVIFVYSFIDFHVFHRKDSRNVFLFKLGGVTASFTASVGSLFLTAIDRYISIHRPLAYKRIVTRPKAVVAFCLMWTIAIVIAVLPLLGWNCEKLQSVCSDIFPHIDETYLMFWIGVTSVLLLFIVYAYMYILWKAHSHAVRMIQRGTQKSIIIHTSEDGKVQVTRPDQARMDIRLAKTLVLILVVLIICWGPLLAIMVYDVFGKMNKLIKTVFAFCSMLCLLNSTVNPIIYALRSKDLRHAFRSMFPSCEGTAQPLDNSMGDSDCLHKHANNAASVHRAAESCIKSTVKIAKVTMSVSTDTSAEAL
UniProt P34972, whole entry: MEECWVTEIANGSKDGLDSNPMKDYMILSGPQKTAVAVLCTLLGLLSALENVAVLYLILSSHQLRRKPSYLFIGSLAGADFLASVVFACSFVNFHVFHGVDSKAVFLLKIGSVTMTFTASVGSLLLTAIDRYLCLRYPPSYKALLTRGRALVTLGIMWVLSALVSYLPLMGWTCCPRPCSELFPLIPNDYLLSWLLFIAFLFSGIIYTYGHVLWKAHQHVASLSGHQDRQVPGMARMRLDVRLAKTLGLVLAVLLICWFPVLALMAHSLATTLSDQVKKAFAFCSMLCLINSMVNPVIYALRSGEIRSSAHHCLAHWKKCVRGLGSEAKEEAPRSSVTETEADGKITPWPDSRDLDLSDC

One assay has as its target T1, hCB1 (Homo sapiens, UniProt P21554).
T1 construct: purchased PerkinElmer; host or cells: CHO-K1 cells stably transfected
Briefly: Competitive in vitro binding assay with [3H]CP-55,940, membranes of CHO-K1 cells stably transfected with hCB1. Conditions: displacement of [3H]CP-55,940 (1.4 nM), 30°C, 90 min; three independent experiments in triplicate; Cheng-Prusoff. (In a radioligand displacement assay an active substance lowers the binding of a labelled ligand.)

A further assay concerns the target T2, hCB2 (Homo sapiens, UniProt P34972).
T2 construct: purchased PerkinElmer; host or cells: CHO-K1 cells stably transfected
Briefly: Competitive in vitro binding assay with [3H]CP-55,940, membranes of CHO-K1 cells stably transfected with hCB2.

Broadly, the Ki is the dissociation constant of the complex between target and ligand, obtained from inhibition or displacement. A higher Ki goes with a looser hold on the target. Regarding `COC(=O)c1c(NC(=O)C23CC4CC(CC(O)(C4)C2)C3)sc2c1CCCC2` [AAT-015], the Ki at hCB1 was 1000 ± 200 nM; on hCB2 (displacement of [3H]CP-55,940 (1.4 nM), 30°C, 90 min, three independent experiments in triplicate, Cheng-Prusoff) it was 3.3 ± 0.5 nM. In addition, the “selectivity over CB1” value at hCB2 (Ki CB1 versus Ki CB2) is listed as 300 fold.
